{"sequences": {"note": "The chains behind the UniProt entries cited, without tags or fusion partners.", "UniProt P47746, whole entry": "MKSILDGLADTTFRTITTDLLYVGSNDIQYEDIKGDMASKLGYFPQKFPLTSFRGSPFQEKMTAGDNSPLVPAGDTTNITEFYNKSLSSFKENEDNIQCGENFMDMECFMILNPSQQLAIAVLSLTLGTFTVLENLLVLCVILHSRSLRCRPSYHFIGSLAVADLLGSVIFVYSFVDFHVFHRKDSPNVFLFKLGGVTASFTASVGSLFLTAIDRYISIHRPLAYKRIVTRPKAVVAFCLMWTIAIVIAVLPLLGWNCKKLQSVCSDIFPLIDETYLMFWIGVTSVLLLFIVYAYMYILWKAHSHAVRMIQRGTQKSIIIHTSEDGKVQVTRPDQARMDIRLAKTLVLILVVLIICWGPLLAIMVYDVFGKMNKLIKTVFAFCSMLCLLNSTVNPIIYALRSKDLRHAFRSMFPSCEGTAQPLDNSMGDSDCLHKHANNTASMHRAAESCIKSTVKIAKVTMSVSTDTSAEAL"}, "source": "patent US20220168230A1", "about": "“NANOPARTICLE MEDIATED THERAPY” (Yale University, priority 2019, published 2022)", "biological_target": "CB1 (Mus musculus, UniProt P47746)", "test": "In vivo blocking study in MCAO mice", "conditions": "SR141716A intravenous 30 minutes before IR780-loaded BA NPs, 24 hours, FIG. 3E", "data": [{"smiles": "Cc1c(C(=O)NN2CCCCC2)nn(-c2ccc(Cl)cc2Cl)c1-c1ccc(Cl)cc1", "note": "[SR141716A]", "values": [{"measurement": "reduction of uptake of BA NPs in the brain", "value": 34, "unit": "%"}]}]}
